From ChEMBL document CHEMBL1149384, “Identification of a novel spiropiperidine opioid receptor-like 1 antagonist class by a focused library approach featuring 3D-pharmacophore similarity” (J Med Chem, 2006)

Key:
Nociceptin receptor [1] = target: T1, Nociceptin receptor (Homo sapiens, UniProt P41146); experiment: Displacement of [125I]Tyr-nociceptin from cloned human ORL1 expressed in CHO cells
Nociceptin receptor [2] = target: T1, Nociceptin receptor; experiment: Antagonist activity on nociceptin-induced [35S]GTP-gamma-S binding to ORL1 expressed in CHO cells
Mu-type opioid receptor = Mu-type opioid receptor (Homo sapiens, UniProt P35372); experiment: Displacement of [3H]diprenorphin from cloned human mu opioid receptor expressed in CHO cells
[3] = target: Kappa-type opioid receptor (Homo sapiens, UniProt P41145); experiment: Displacement of [3H]U-69593 from cloned human kappa opioid receptor expressed in CHO cells

What does the source list for CCn1c(=O)n([C@@H]2CCN(CC3CCCCCCC3)C[C@H]2CO)c2ccccc21?
pIC50 (Nociceptin receptor [1]): 8.62; pIC50 (Nociceptin receptor [2]): 8.82; pIC50 (Mu-type opioid receptor): 5.47; pIC50 [3]: 5.80

pIC50: −log10 of the molar value.
